# Source: patent US8530494B2, “Buprenophine analogs” (dated 2013)
# Key:
# δ-opioid receptor = δ-opioid receptor (Homo sapiens (Human), UniProt P41143); assay: δ-opioid receptor radioligand dose-displacement assay ([3H]-Naltrindole); conditions: read-out: Ki δ
# kappa opioid receptor [1] = biological target: T1, kappa opioid receptor (Homo sapiens (Human), UniProt P41145); assay: κ-opioid receptor radioligand dose displacement assay ([3H]-U69,593); conditions: read-out: Ki κ
# kappa opioid receptor [2] = biological target: T1, kappa opioid receptor; assay: κ-opioid receptor functional [35S]GTPγS binding assay
# delta opioid receptor = delta opioid receptor (Homo sapiens (Human), UniProt P41143); assay: δ-opioid receptor functional [35S]GTPγS binding assay
# μ-opioid receptor [3] = biological target: T2, μ-opioid receptor (Homo sapiens (Human), UniProt P35372); assay: μ-opioid receptor [35S]GTPγS functional assay
# [4] = biological target: human opioid receptor-like receptor (ORL-1) (Homo sapiens (Human), UniProt P41146); assay: ORL-1 receptor radioligand binding assay ([3H]-nociceptin)
# μ-opioid receptor [5] = biological target: T2, μ-opioid receptor; assay: μ-opioid receptor radioligand dose-displacement binding assay ([3H]-diprenorphine); conditions: read-out: Ki μ
compound,measurement,setting,value
C#CCOC[C@H]1C[C@@]23CC[C@]1(OC)[C@@H]1Oc4c(OC)ccc5c4[C@@]12CCN(CC1CC1)[C@@H]3C5,Ki,δ-opioid receptor,221 nM
same,Ki,kappa opioid receptor [1],1.3 nM
same,EC50,kappa opioid receptor [2]; read-out: GTPγS κ EC50,62 nM
same,GTPγS κ Emax,"kappa opioid receptor [2]; relative to U69,593",98%
same,EC50,delta opioid receptor; read-out: GTPγS δ EC50,455 nM
same,GTPγS δ Emax,delta opioid receptor; relative to met-enkephalin,66%
same,EC50,μ-opioid receptor [3]; read-out: GTPγS μ EC50,3710 nM
same,GTPγS μ Emax,μ-opioid receptor [3]; relative to DAMGO,19%
same,Ki ORL-1,[4],Inactive
same,Ki,μ-opioid receptor [5],43 nM
